In the library only some 1.1% were active in any assay of this set; here they are far more common.
Anesthetic bind: candidate novel general anesthetic via apoferritin binding. P02791. apoferritin/1-aminoanthracene competitive binding, fluorescence. Potency, µM (series often up to 77.5 µM), inactives show at the top dose activity change, negative = displacement, usual class: inhibitors. 350,000 tested, 0.074% active; further: potency means the concentration at half of the fitted maximal effect; on the % scale 0 is the no-effect control and ±100 the full control effect; nearly all actives have a fitted effect of over 20% in size
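In PBS, apoferritin at 10 uM is loaded with 1-AMA from a 50% saturated solution. After 10 min of compound exposure at ambient temperature, reduced 535 nm fluorescence indicates probe displacement.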
miR-21 reporter: miR-21 reporter, rising signal | AID 2288 | HeLa miR-21 FLuc reporter, luciferase, 48 h | 340,000 tested, under 10 active | Potency, µM (titrated, usually from 38.3 µM), for the others: at the top dose reporter change, positive = more light; active = well fitted rising curve with a large enough effect; inconclusive = small, poorly fitted or top-dose-only effect; inactive = no such curve, though single readings can be large or run the other way;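 also: % of control where 0% means no effect; miR-21 action dims this reporter so a rising signal means less miR-21 action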
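Compounds were titrated across several concentrations (up to approximately 40 uM) and incubated 48 hours with HeLa miR-21-FLuc reporter cells (miR-21 target sequence downstream of FLuc, endogenous miR-21). Readout was firefly luciferase luminescence after lytic detection reagent.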
p53 reactivation: re-activators of mutant p53; H1299 p53-A138V BP100-luciferase reporter, luminescence, 24 h; Potency, µM (highest dose often 92.2 µM), without a hit: at the highest dose activity change, positive = activation, most hits filed as activators; 320,000 tested, 0.063% active; further: potency means the concentration at half of the fitted maximal effect; % of control where 0% means no effect; nearly all actives have a fitted effect of over 45% in size
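H1299 (p53-null), stable ts p53-A138V + BP100-Luc; 1000 cells/well, Opti-MEM/10% FBS; cpd 4 pt, 1:5; 24 h, 37 deg C, 5% CO2; detection reagent 10 min RT; luminescence.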
BRCA1 expr act: increases BRCA1 expression. MCF7-BRCA1-FFLuc reporter, luminescence, 48 h; response scale: scaled: vehicle 0%, 10 µM genistein 100%. Potency, µM (titrated, usually from 46.1 µM), for the others: at the highest dose activation, actives largely listed as activators. 380,000 tested, 1.1% active. AID 624202; further: potency means the concentration at half of the fitted maximal effect; nearly all actives have a fitted effect of over 80% in size
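Luminescence from a BRCA1-driven firefly luciferase in MCF7 cells was read after 48 h compound exposure at 37 C. Data normalized against DMSO and a 10microM genistein activation control, then curve-fitted across the titration.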
Numbers without * were called inactive. The call rests on the fitted dose curve; in most records, active means well fitted curve in the direction sought with a large enough effect; inconclusive means small, poorly fitted or top-dose-only effect, or another doubt; inactive means no such curve, though single readings can be large; an effect the other way counts as inactive or inconclusive.

NC(=O)c1ccc(NC(=O)COc2coc(CN3CCc4ccccc4C3)cc2=O)cc1 was read as p53 reactivation 0% and BRCA1 expr act -21%.
CCC(Sc1ncccc1C(=O)Oc1ccccc1Cl)C(=O)Nc1ccccc1OC (stereo unspecified) was read as Anesthetic bind -14% and miR-21 reporter 1%.
O=C(CSc1ncccc1C(=O)Oc1ccccc1Cl)Nc1ccccc1Cl was read as Anesthetic bind -17%, miR-21 reporter -47% and BRCA1 expr act 11µM*.
CCNC(=S)NNc1nnc(-c2ccccc2)c(-c2ccccc2)n1 was read as Anesthetic bind -14%, miR-21 reporter 5%, p53 reactivation 8% and BRCA1 expr act -15%.
For O=C(NCCOc1ccccc1Cl)c1cc(F)c(F)cc1Cl the results were Anesthetic bind -18%, miR-21 reporter -43%, p53 reactivation inconclusive and BRCA1 expr act 7.1µM*.
Screening O=C(O)c1ccc(-c2nnc(-c3cccc(Br)c3)o2)cc1 returned Anesthetic bind 12%, miR-21 reporter -27%, p53 reactivation inconclusive and BRCA1 expr act 2.8µM*.
Screening COc1ccc(-c2nnc(-c3cccnc3)o2)cc1 returned Anesthetic bind -8%, miR-21 reporter -60%, p53 reactivation inconclusive and BRCA1 expr act inconclusive.
For Clc1ccc(-c2nnc(-c3cccnc3)o2)cc1 the results were Anesthetic bind 29%, miR-21 reporter -39% and BRCA1 expr act 7.9µM*.
Screening Clc1ccc(CSc2nnc(-c3cccnc3)o2)cc1 returned Anesthetic bind -17%, miR-21 reporter -16%, p53 reactivation 5% and BRCA1 expr act 41%.
For Cc1ccc(-c2nnc(-c3cccnc3)o2)cc1 the results were Anesthetic bind -7%, miR-21 reporter -62%, p53 reactivation inconclusive and BRCA1 expr act 4.5µM*.
Screening Brc1ccc(-c2nnc(-c3cccc(Br)c3)o2)cc1 returned Anesthetic bind -17%, miR-21 reporter -17%, p53 reactivation 18% and BRCA1 expr act 65%.
`FC(F)(F)c1ccc(-c2nnc(-c3cccnc3)o2)cc1` gave Anesthetic bind -1%, miR-21 reporter -14%, p53 reactivation 24% and BRCA1 expr act 55%.
For Brc1ccc(-c2nnc(-c3cccnc3)o2)cc1 the results were BRCA1 expr act 4.5µM*.
Screening COC(=O)c1cc(-c2ccc(C)cc2)c2c(=O)n(C)c(=O)n(C)c2n1 returned Anesthetic bind -6% and miR-21 reporter -2%.
c1cncc(-c2nnc(-c3cccs3)o2)c1 was read as Anesthetic bind -10%, miR-21 reporter -32%, p53 reactivation 8% and BRCA1 expr act 14µM*.
Brc1ccc(-c2nnc(-c3ccco3)o2)cc1 was read as Anesthetic bind -6%, miR-21 reporter -51%, p53 reactivation inconclusive and BRCA1 expr act inconclusive.
For Cc1ccc(-c2nnc(-c3ccc(Br)cc3)o2)o1 the results were Anesthetic bind 4%, miR-21 reporter -33%, p53 reactivation inconclusive and BRCA1 expr act 3.2µM*.
Cc1cccc(-c2nnc(-c3ccccc3)o2)c1 was read as Anesthetic bind inconclusive, miR-21 reporter -47%, p53 reactivation 11µM* and BRCA1 expr act 72%.
`Brc1ccccc1-c1nnc(-c2cccnc2)o1` gave Anesthetic bind -9%, miR-21 reporter -51%, p53 reactivation inconclusive and BRCA1 expr act 88%.
For CCNc1oc(COc2cccc(C)c2)nc1C#N the results were Anesthetic bind inconclusive, miR-21 reporter -56%, p53 reactivation inconclusive and BRCA1 expr act 11µM*.
Screening Cc1cccc(OCc2nc(C#N)c(NCCN(C)C)o2)c1 returned Anesthetic bind -7%, miR-21 reporter -10%, p53 reactivation 0% and BRCA1 expr act 19%.
`CC(C)c1ccc(NC(=O)C2=NNC(=O)CC2)cc1` gave Anesthetic bind -2%, miR-21 reporter -72%, p53 reactivation 6% and BRCA1 expr act 2.2µM*.
For CC(=O)NC1=C(C#N)CCC1 the results were BRCA1 expr act -10%.
Screening COc1ccc(Cl)cc1NC(=O)CSc1nc2ccccc2nc1N1CCCCC1 returned Anesthetic bind 66% and miR-21 reporter -5%.
Screening Cc1c(C(=S)Nc2ccccc2)cnn1-c1ccccc1 returned Anesthetic bind -19%, miR-21 reporter -24%, p53 reactivation 8% and BRCA1 expr act 7.9µM*.
Screening Cc1nn(-c2ccccc2)cc1C(=S)Nc1ccccc1 returned Anesthetic bind 5%, miR-21 reporter -59%, p53 reactivation inconclusive and BRCA1 expr act 7.9µM*.
For Cc1c(C(=S)Nc2ccccc2)cnn1-c1ccc([N+](=O)[O-])cc1 the results were Anesthetic bind 5%, miR-21 reporter 2%, p53 reactivation -19% and BRCA1 expr act -30%.
For CCc1cc(C(=O)NNC(=S)Nc2ccccc2C)cs1 the results were Anesthetic bind -8%, miR-21 reporter -67%, p53 reactivation inconclusive and BRCA1 expr act 10µM*.
CCc1cc(C(=O)NNC(=S)Nc2cc(C)ccc2C)cs1 was read as Anesthetic bind -11%, miR-21 reporter -38%, p53 reactivation 20% and BRCA1 expr act -1%.
N#Cc1cc([N+](=O)[O-])ccc1NC(=O)CSc1n[nH]c(=O)n1C1CC1 was read as p53 reactivation -7% and BRCA1 expr act -21%.

5 structures already listed, sorted by molar mass, largest number first.
N#Cc1cc([N+](=O)[O-])ccc1NC(=O)CSc1n[nH]c(=O)n1C1CC1 was read as p53 reactivation -7% and BRCA1 expr act -21%.
For CCc1cc(C(=O)NNC(=S)Nc2ccccc2C)cs1 the results were Anesthetic bind -8%, miR-21 reporter -67%, p53 reactivation inconclusive and BRCA1 expr act 10µM*.
Screening Cc1cccc(OCc2nc(C#N)c(NCCN(C)C)o2)c1 returned Anesthetic bind -7%, miR-21 reporter -10%, p53 reactivation 0% and BRCA1 expr act 19%.
Screening Cc1c(C(=S)Nc2ccccc2)cnn1-c1ccccc1 returned Anesthetic bind -19%, miR-21 reporter -24%, p53 reactivation 8% and BRCA1 expr act 7.9µM*.
For CC(=O)NC1=C(C#N)CCC1 the results were BRCA1 expr act -10%.

Additional compounds.
For O=C(NNCc1ccccc1)c1ccccn1 the results were BRCA1 expr act 1.1µM*.
For O=C(NNCc1ccccc1)c1ccccc1 the results were BRCA1 expr act -2%.
Screening Clc1ccc(COc2ccccc2-c2ccnc3ncnn23)cc1 returned Anesthetic bind -9%, miR-21 reporter -61%, p53 reactivation 9% and BRCA1 expr act 11µM*.
Cc1ccc(S(=O)(=O)C/N=C(/NC(=S)N(c2ccccc2)c2ccccc2)c2ccccc2)cc1 was read as Anesthetic bind 14µM*, miR-21 reporter -12%, p53 reactivation 9% and BRCA1 expr act 0%.
For Cc1ccc(C(=O)N2CCCC(N3CCN(c4ccccc4C)CC3)C2)c(=O)[nH]1 (stereo unspecified) the results were Anesthetic bind -7%, miR-21 reporter 0%, p53 reactivation -2% and BRCA1 expr act 0%.
For COc1cc(/C=N/Nc2snc(SC)c2C#N)cc(OC)c1OC the results were Anesthetic bind -10%, miR-21 reporter 11%, p53 reactivation -3% and BRCA1 expr act -58%.
CSc1nsc(N/N=C/c2ccc3c(c2)OCO3)c1C#N was read as Anesthetic bind -5%, miR-21 reporter -62%, p53 reactivation inconclusive and BRCA1 expr act 4µM*.
For CCCCN(C)CCCNC(=O)Cn1ncc2c3ccccc3n(Cc3cccc(Cl)c3)c2c1=O the results were Anesthetic bind -6% and miR-21 reporter -5%.
`CC(C)c1ccc(/C=N/NC(=O)c2c(Cl)cnn2C)cc1` gave Anesthetic bind -13%, miR-21 reporter -59%, p53 reactivation inconclusive and BRCA1 expr act 7.1µM*.
For Cc1nn(C)c(C(=O)N/N=C/c2ccc(Br)cc2)c1Cl the results were Anesthetic bind -5%, miR-21 reporter -5%, p53 reactivation 4% and BRCA1 expr act -14%.

Assay outcomes (PubChem BioAssay)
